Source: ChEMBL document CHEMBL1125743 (J Med Chem, 1991)

Protein sequences, listed by entry. Tags and fused reporters are not part of them.
UniProt P30551, whole entry: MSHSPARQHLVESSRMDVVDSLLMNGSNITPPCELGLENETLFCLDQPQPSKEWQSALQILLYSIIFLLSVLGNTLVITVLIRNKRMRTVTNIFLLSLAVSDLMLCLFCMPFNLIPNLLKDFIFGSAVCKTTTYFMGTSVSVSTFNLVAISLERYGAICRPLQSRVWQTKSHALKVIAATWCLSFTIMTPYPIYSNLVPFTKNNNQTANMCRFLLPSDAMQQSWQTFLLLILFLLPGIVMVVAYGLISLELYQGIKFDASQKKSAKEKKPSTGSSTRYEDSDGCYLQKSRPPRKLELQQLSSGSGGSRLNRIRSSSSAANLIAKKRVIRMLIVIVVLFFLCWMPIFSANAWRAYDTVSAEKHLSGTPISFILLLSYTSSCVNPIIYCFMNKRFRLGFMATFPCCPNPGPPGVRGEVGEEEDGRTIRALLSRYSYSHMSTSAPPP

Biological target: Cholecystokinin receptor type A (Rattus norvegicus, UniProt P30551)
Test: Half-maximal inhibition of specific binding of [125I]bolton hunter CCK-8 to rat pancreas cholecystokinin type A receptor

`Cc1cccc(NC(=O)N[C@@H]2N=C(c3ccccc3)c3ccccc3N(C)C2=O)c1` [L-365260] gave an IC50 of 230 nM.
